Conditions: rat, in vivo

ibuprofen in Brain (1 hr): Not
Compound: CC(C)Cc1ccc(C(C)C(=O)O)cc1 (stereo not shown) [ibuprofen, 2-(ρ-isobutylphenyl)propionic acid, reference compound]

From US11541029B2, “High penetration compositions and their applications” (Techfields Pharma Co., Ltd., priority 2008, dated 2023)
